The values that follow come from patent US20230414628A1, “METHODS FOR TREATING DISEASES MEDIATED BY GLUTATHIONE PEROXIDASE 4” (priority 2022, published 2023).

In this experiment the test system is RAG01 (derived from fibroblasts of a patient diagnosed with SSMD) fibroblasts. As to the kind of experiment: CellTiter-Glo concentration response in RAG01 fibroblasts. Type of experiment: cell-based. Conditions: Homo sapiens, Fibroblast, 72 h. On the procedure:
Compounds described herein were tested in three cell lines, RAG01 (derived from fibroblasts of a patient diagnosed with SSMD) fibroblasts, RAG02 (derived from fibroblasts of the patient's parent), and GM09503 (from supplier Corriell) (derived from a healthy donor) to each generate 10-point concentration response curves (CRC). The three cell lines were each thawed seven (7) days prior to seeding. The RAG01 cells were thawed in a medium supplemented with a-tocopherol. Cells were passaged four (4) days prior to the seeding. The α-tocopherol was removed from the RAG01 cells. Cells were then seeded at 900 cells per well in 384-well plates. Two replicates were prepared for two independent (replicate) experiments. All plates were then incubated with compounds described herein for 72 hours, prior to CellTiter-Glo assay. […] The assay was run using the CellTiter-Glo (Promega) following manufacturer's guidelines and luminescent spectrophotometric reading on PHERAstar FSX (BMG Labtech). A 0.1% dimethylsulfoxide (DMSO) was used as a blank (vehicle control); and a 1 μM Ferrostatin-1 was used as a control (CTRL).
The raw data was analyzed using Activity Base® software. The compounds were evaluated by efficacy (percentage effect) normalized to the vehicle control. The percentage effect (PE) was determined from the signal increase in comparison to the vehicle control according to the formula below: […]

pEC50: −log10 of the molar value.

In turn, `Cc1c(NC(=O)N2CCOCC2)ccc2c1c1ccccc1n2C(C)C` [compound 63, NPY-5RA972] showed a negative-log EC50 (pEC50) of 5.26.
In turn, `Cc1ccc(CCCO)c(NCc2ccc3nc(NCCCN4CCOCC4)n(Cc4nc(C)ccc4O)c3c2)c1` [compound 102, TMC353121] gave a pEC50 of 5.85.
